Values of other authors as cited in article PMC10026690 (Journal of medicinal chemistry, 2019).

Tested on: enteroids
Settings: doses up to 20 μM; ref 10 (dose by personal communication); cited from earlier work

For C=C(c1ccccc1)[C@@]12CC[C@@H](O)[C@@H]1CC(CCCCCC)=C2c1ccccc1 [RJW100], the activity in enteroids is listed as “inactive”.
